These results are taken from patent US20100216706A1, “Ghrelin Protects Substantia Nigra Dopamine Neurons” (priority 2007, published 2010).

By UniProt entry, the sequences of proteins in these tests, tags left out. Where a name states a change or a piece, a line headed by the entry shows the natural chain unless it says otherwise.
UniProt O08725, whole entry: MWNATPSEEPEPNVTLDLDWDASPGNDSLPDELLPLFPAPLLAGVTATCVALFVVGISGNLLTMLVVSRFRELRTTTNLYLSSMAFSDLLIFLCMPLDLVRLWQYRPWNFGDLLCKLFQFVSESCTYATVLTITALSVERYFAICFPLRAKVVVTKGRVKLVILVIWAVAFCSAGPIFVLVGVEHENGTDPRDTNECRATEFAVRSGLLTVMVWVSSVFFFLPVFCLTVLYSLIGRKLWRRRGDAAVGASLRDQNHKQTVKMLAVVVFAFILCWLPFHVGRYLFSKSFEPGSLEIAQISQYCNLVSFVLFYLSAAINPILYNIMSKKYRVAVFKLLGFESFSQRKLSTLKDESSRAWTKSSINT
UniProt Q9UBU3: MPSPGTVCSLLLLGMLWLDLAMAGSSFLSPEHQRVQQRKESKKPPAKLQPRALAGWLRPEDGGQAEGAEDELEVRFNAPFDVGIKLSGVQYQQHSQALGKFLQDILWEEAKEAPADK

Test [1] deals with UCP2-dependent mitochondrial respiration. Put plainly: Uncoupled mitochondrial respiration in pooled midbrain of UCP2 wt or ko mice. Format: in vivo. As to conditions: ghrelin IP 30 nmol, 3 hours; ko saline 3 17.0±12.7. The protocol:
Mitochondrial respiration: The ability of ghrelin to promote mitochondrial respiration was examined in mitochondria isolated from midbrain of ghrelin-treated rats (30 nmol) three hours after injection. Rats were used as the mitochondrial yield after isolation is much higher than the yield from mice. Mitochondrial respiration was also examined in the pooled midbrain of UCP2 ko and wt mice (3 pooled brains), 3 hours after ghrelin injection (IP 30 nmol).
Mitochondria were pooled from the SN-VTA (4 animals=1, total n=4) and isolated by differential centrifugation. […] Protein concentrations were determined with a BCA protein assay kit (Pierce, Rockford, Ill., USA).
Mitochondrial respirations were assessed using a Clark-type oxygen electrode (Hansatech Instruments, Norfolk, England) at 37° C. with pyruvate and malate (5 mM and 2.5 mM) as oxidative substrates in respiration buffer (215 mM Mannitol, 75 mM sucrose, 0.1% fatty acid free BSA, 20 mM Hepes, 2 mM MgC1, 2.5 mM KH2PO4, pH adjusted to 7.2 with KOH). Following the addition of ADP and oligomycin, UCP-mediated proton conductance was measured as increased fatty acid-induced respiration (Echtay et al., 2002), which was then compared to state 4 respiration induced by oligomycin, an inhibitor of H^+ transporting ATP synthase.
It was determined that GHSRs are expressed on UCP2 neurons in the SNpc. […]

Test [2] concerns the target T1, substantia nigra pars compacta (SNpc) cells / GHSR (Rattus norvegicus, UniProt O08725).
T1 construct: saline-perfused rat brains (n=4) were removed, sectioned, and immediately reacted with biotinylated ghrelin; from tissue; host or cells: wild-type rat brain sections (100 µm) containing the substantia nigra pars compacta
Briefly: Biotinylated ghrelin binding on brain slices containing the SNpc. The text has this:
Biotinylated ghrelin binding in the SN: To test whether ghrelin binds to cells in the substantia nigra, 100 μm sections containing these regions were processed for binding studies as described previously (Cowley et al., 2003, Neuron 37: 649-61).
Briefly, saline-perfused rat brains (n=4) were removed, sectioned, and immediately reacted with biotinylated ghrelin (1M; Phoenix Pharmaceuticals, Belmont, Calif.) alone or in combination with an equal amount of unlabeled (cold) ghrelin (1M; Phoenix Pharmaceuticals) for 20 minutes at 4° C. Sections were fixed with 4% paraformaldehyde and reacted with avidin-Texas red and analyzed using a Zeiss microscope equipped with fluorescent filters.
To study ghrelin binding on rat brain slices containing the substantia nigra pars compacta (SNpc), brain sections were reacted with biotinylated ghrelin.

`CN1CC=C(c2ccccc2)CC1` [MPTP, 1-methyl-4-phenyl-1,2,5,6 tetrahydropyridine]: the “FCCP-driven respiration, UCP2 ko mice” value in test [1] is 363.5±3.8.
In the case of “Biotinylated ghrelin: biotinylated ghrelin from Phoenix Pharmaceuticals used for binding studies (GSSFLSPEHQRVQQRKESKKPPAKLQPR; Ghrelin-28 biotin; UniProt Q9UBU3 24-51, looked up)”, the “Biotinylated ghrelin binding with unlabelled ghrelin added” value in test [2] (equal amount of unlabelled ghrelin in the incubation solution) is given as “No binding was observed”. For the same compound, the “Biotinylated ghrelin binding in the SNpc” value in test [2] (rat brain sections, biotinylated ghrelin alone) is “binding was observed throughout the SNpc”.
